Results published in patent EP0518216A2, “N-/Arylethyl/-N-alkyl-2-(1-pyrrolidinyl)ethylamine derivatives for CNS disorders” (G.D. Searle & Co., priority 1991, dated 1992).

By UniProt entry, the sequences of proteins in these tests, tags left out. Where a name states a change or a piece, a line headed by the entry shows the natural chain unless it says otherwise.
UniProt P41144: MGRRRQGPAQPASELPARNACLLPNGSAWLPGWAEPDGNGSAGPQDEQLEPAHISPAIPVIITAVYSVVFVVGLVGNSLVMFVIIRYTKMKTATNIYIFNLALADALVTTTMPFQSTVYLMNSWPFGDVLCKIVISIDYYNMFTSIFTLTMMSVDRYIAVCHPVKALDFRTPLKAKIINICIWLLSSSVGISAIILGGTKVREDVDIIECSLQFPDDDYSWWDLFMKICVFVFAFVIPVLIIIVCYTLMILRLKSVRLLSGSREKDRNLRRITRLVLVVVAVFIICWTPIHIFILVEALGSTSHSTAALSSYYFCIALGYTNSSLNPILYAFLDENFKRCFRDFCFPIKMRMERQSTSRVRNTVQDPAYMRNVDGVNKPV

Target: Kappa receptors (Cavia porcellus, UniProt P41144)
Assay: Kappa opiate receptor binding assay with [3H]bremazocine in the presence of DAGO and DSTLE
Settings: guinea pig brain; determined in independent experiments

CCC12CCN(CC3(O)CC3)C(Cc3ccc(O)cc31)C2(C)C (stereo not shown) [[^3H]Bremazocine]
Kd: 640 pM
